Source: patent publication US9428503B2, “Imidazo[4,5-c]quinolin-2-one compounds and their use in treating Cancer” (AstraZeneca AB, priority 2014, dated 2016)
Where a name gives a salt, the structure may show the parent alone.

Amino acid sequences for entries named in this document (tags omitted). A change or cut given only in a name is not applied to a line headed by its entry.
UniProt Q13315: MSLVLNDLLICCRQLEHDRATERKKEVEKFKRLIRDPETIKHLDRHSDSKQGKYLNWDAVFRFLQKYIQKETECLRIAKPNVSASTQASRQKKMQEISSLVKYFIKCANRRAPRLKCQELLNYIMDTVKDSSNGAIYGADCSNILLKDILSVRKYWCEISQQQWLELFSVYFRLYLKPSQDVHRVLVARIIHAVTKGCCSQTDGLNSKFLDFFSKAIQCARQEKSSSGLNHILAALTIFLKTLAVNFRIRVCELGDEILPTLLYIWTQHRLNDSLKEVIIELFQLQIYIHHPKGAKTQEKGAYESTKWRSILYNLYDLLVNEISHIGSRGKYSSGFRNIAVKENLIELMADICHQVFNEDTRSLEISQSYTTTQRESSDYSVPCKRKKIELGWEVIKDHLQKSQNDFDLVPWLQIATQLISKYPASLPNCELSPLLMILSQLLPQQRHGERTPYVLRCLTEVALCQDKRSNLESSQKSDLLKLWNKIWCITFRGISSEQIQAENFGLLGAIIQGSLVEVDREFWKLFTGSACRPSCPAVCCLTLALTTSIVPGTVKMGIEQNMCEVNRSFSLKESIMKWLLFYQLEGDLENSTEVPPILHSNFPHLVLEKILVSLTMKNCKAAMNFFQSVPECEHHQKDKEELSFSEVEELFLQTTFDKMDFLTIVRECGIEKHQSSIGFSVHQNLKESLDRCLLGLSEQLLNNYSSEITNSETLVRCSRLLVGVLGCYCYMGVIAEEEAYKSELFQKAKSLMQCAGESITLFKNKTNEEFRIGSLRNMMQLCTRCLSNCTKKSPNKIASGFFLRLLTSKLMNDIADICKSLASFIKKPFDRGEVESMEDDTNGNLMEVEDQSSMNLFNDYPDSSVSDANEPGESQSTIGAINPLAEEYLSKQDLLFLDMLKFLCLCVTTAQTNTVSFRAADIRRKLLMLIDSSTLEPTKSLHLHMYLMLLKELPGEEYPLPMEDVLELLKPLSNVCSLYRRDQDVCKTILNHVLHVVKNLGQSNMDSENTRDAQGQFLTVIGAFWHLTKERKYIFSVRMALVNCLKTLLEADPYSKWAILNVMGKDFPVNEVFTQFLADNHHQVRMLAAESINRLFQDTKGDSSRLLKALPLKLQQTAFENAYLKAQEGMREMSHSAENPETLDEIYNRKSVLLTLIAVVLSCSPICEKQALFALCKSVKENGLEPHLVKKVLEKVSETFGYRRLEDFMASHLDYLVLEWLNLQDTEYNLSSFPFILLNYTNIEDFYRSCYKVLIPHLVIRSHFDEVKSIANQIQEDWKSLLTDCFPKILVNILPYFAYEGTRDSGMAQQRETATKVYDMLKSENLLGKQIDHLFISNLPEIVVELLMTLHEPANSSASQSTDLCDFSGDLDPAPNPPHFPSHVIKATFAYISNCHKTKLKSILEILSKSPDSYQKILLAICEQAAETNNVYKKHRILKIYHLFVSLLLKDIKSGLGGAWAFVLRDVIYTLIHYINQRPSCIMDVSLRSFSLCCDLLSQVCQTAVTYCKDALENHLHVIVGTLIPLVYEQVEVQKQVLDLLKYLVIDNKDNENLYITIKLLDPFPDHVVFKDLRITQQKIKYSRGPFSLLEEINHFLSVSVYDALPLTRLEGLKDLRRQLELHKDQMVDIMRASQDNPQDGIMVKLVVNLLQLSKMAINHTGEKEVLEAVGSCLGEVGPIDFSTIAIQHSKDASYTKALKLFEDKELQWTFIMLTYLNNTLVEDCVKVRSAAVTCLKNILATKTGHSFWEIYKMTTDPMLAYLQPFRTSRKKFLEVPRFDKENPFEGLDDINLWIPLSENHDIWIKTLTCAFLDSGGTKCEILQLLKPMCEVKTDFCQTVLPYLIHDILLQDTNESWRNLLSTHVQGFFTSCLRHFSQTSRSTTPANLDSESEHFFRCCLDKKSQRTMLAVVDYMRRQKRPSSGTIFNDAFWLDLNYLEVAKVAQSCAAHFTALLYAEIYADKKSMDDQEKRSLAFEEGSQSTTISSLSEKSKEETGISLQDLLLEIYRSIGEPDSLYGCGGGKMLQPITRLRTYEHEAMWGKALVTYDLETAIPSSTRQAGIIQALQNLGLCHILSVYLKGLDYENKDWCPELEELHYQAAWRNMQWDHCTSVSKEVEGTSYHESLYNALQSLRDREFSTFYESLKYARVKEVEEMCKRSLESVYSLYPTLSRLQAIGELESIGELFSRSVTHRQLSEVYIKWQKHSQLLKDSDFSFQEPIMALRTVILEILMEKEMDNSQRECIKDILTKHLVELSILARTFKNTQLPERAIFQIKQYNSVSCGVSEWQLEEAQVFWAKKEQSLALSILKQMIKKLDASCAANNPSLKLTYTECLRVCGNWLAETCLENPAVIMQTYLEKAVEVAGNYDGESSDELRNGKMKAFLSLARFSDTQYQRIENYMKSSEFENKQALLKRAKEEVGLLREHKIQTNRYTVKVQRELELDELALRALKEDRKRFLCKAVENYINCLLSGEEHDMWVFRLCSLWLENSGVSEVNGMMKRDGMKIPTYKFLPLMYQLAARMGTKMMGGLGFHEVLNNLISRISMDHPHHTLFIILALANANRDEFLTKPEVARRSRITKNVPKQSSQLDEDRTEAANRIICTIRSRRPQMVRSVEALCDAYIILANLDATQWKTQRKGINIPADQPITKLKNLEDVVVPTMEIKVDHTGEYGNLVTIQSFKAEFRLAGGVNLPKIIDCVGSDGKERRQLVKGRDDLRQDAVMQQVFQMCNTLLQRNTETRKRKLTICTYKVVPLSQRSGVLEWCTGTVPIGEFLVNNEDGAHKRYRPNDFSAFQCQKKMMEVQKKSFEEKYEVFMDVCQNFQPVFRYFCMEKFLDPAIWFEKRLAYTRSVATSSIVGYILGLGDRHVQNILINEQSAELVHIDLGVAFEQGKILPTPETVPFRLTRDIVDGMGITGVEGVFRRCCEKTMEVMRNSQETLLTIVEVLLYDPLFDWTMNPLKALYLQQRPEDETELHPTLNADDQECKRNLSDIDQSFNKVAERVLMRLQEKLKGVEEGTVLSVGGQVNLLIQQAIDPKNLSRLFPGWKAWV
UniProt P42336, whole entry, looked up: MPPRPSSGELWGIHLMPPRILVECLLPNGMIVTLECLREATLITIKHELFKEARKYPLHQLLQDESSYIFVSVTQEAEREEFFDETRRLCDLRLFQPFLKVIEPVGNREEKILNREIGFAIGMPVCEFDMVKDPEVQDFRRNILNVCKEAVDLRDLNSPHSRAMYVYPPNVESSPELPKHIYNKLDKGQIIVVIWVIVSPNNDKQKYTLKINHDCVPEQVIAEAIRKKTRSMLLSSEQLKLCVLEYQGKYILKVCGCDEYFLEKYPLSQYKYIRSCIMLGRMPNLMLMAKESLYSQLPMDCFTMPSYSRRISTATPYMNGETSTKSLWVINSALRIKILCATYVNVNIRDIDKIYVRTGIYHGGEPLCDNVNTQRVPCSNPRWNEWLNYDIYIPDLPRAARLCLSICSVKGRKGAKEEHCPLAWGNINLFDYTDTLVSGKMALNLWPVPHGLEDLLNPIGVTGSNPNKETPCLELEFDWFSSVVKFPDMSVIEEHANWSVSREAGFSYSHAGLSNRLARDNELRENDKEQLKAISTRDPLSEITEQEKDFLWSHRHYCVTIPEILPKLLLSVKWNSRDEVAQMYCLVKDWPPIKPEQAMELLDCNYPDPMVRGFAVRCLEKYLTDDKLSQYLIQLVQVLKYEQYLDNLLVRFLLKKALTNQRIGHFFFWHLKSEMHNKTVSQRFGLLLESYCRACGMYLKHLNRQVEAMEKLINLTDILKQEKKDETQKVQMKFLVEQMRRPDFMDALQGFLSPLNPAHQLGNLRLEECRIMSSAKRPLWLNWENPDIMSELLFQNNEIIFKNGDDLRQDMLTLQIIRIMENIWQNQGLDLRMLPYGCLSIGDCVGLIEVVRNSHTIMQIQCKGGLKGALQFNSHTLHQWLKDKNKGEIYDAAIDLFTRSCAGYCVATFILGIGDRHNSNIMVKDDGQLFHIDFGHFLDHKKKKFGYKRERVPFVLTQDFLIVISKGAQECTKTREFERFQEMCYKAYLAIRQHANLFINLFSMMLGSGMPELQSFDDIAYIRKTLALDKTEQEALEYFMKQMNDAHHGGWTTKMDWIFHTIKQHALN

How the values were obtained:
ATM kinase = ATM kinase (Homo sapiens (Human), UniProt Q13315); test: Assay a) ATM cellular potency assay (pATM Ser1981 in X-ray irradiated HT29 cells); assay type: cell-based; conditions: HT29 cells, pATM Ser1981 after X-ray irradiation; geometric mean where repeated; read-out: Assay a) ATM Cell IC50
PI3K-α = PI3K-α (Homo sapiens, UniProt P42336); test: Assay c) PI3K cellular potency assay (phospho-Akt T308 ELISA in BT474 cells); assay type: cell-based; conditions: BT474 cells, phospho-Akt T308, 2 h; geometric mean where repeated; read-out: Assay c) PI3Kα Cell IC50

IC50 (ATM kinase) [nM]	IC50 (PI3K-α) [nM]	Structure (SMILES)
0.765	–	CO[C@H]1C[C@@H](n2c(=O)n(C)c3cnc4ccc(-c5ccc(OCCCN(C)C)nc5F)cc4c32)C1 [Example 18, 8-[6-(3-dimethylaminopropoxy)-2-fluoropyridin-3-yl]-1-(cis-3-methoxycyclobutyl)-3-methylimidazo[4,5-c]quinolin-2-one]
0.418	–	CO[C@H]1C[C@@H](n2c(=O)n(C)c3cnc4cc(F)c(-c5ccc(OCCCN6CCCC6)nc5)cc4c32)C1 [Example 27, 7-Fluoro-1-(cis-3-methoxycyclobutyl)-3-methyl-8-[6-(3-pyrrolidin-1-ylpropoxy)pyridin-3-yl]imidazo[4,5-c]quinolin-2-one]
0.238	–	Cn1c(=O)n([C@H]2CCCOC2)c2c3cc(-c4ccc(OCCCN5CCCC5)nc4)ccc3ncc21 [Example 29, 3-methyl-1-[(3S)-oxan-3-yl]-8-[6-(3-pyrrolidin-1-ylpropoxy)pyridin-3-yl]imidazo[5,4-c]quinolin-2-one]
1.12	–	Cn1c(=O)n(C2CCOCC2)c2c3cc(-c4ccc(OCCCN5CCCC5)nc4)ccc3ncc21 [Example 30, 3-methyl-1-(oxan-4-yl)-8-[6-(3-pyrrolidin-1-ylpropoxy)pyridin-3-yl]imidazo[5,4-c]quinolin-2-one]
4.76	–	CN(C)CCCOc1ccc(-c2ccc3ncc4c(c3c2)n(C2COC2)c(=O)n4C)c(F)n1 [Example 52, 8-[6-[3-(dimethylamino)propoxy]-2-fluoro-3-pyridyl]-3-methyl-1-(oxetan-3-yl)imidazo[4,5-c]quinolin-2-one methanesulfonic acid salt]
–	3470	Cn1c(=O)n([C@@H]2CCOC2)c2c3cc(-c4ccc(OCCCN5CCCCC5)nc4)ccc3ncc21 [Example 54, 3-methyl-8-[6-[3-(1-piperidyl)propoxy]-3-pyridyl]-1-[(3R)-tetrahydrofuran-3-yl]imidazo[4,5-c]quinolin-2-one methane sulfonic acid salt]
–	> 9130	Cn1c(=O)n([C@H]2CCOC2)c2c3cc(-c4ccc(OCCCN5CCCCC5)nc4)ccc3ncc21 [Example 55, 3-methyl-8-[6-[3-(1-piperidyl)propoxy]-3-pyridyl]-1-[(3S)-tetrahydrofuran-3-yl]imidazo[4,5-c]quinolin-2-one]
0.233	–	Cn1c(=O)n([C@@H]2CCCOC2)c2c3cc(-c4ccc(OCCCN5CCCC5)nc4)ccc3ncc21 [Example 59, 3-methyl-8-[6-(3-pyrrolidin-1-ylpropoxy)-3-pyridyl]-1-[(3R)-tetrahydropyran-3-yl]imidazo[4,5-c]quinolin-2-one]
